Reference: ChEMBL document CHEMBL5316272, “Structural and Functional Landscape of FAD-Dependent Histone Lysine Demethylases for New Drug Discovery” (J Med Chem, 2023)

Biological target: LSD1/CoREST complex (Homo sapiens, UniProt O60341)
Assay: Inhibition of human LSD1-CoREST expressed in Escherichia coli assessed as dissociation constant

Q: How did the Kd turn out when COc1cc2nc(NCCCN(C)C)nc(N(C)C)c2cc1OC was run?
A: 7.78 µM
